# From article PMC5360572 (2017)
# B1: human PD-L2 Ig fusion protein [human] / full-length human PD-1, wild type, on HEK293 cells [human] (parent complex)
# chain 1: LFTVTVPKELYIIEHGSNVTLECNFDTGSHVNLGAITASLQKVENDTSPHRERATLLEEQLPLGKASFHIPQVQVRDEGQYQCIIIYGVAWDYKYLTLKVKASYRKINTHILKVPETDEVELTCQATGYPLAEVSWPNVSVPANTSHSRTPEGLYQVTSVLRLKPPPGRNFSCVFWNTHVRELTLASIDLQSQMEPRTHPT
# chain 2: LDSPDRPWNPPTFSPALLVVTEGDNATFTCSFSNTSESFVLNWYRMSPSNQTDKLAAFPEDRSQPGQDCRFRVTQLPNGRDFHMSVVRARRNDSGTYLCGAISLAPKAQIKESLRAELRVTERRAEVPTAHPSPSPRPAGQFQTLVVGVVGGLLGSLVLLVWVLAVICSRAARGTIGARRTGQPLKEDPSAVPVFSVDYGELDFQWREKTPEPPVPCVPEQTEYATIVFPSGMGTSSPARRGSADGPRSAQPLRPEDGHCSWPL
# Variants of: B1
# Experiment: flow cytometry on cells; 0.5 μg/ml ligand concentration; read off a plot
row,Variant,percent of parent [% WT]
1,chain 2 I110A,~70
2,chain 2 L104R,~160
3,chain 2 E112A,~140
4,chain 2 L104A,~190
5,chain 2 K54A,~1

# Variants of: B1
# Experiment: flow cytometry on cells; PD-L2 Ig about 330 nM (x position estimated); read off a plot
row,Variant,response [MFI]
1,chain 2 K54A,~3
